Reference: patent US20250177396A1, “POLO-LIKE KINASE 4 (PLK4) INHIBITORS, PHARMACEUTICAL COMPOSITIONS, METHODS OF PREPARATION AND USES THEREOF” (Repare Therapeutics Inc., priority 2022, published 2025)

Protein sequences, listed by entry. Tags and fused reporters are not part of them.
UniProt O00444, whole entry: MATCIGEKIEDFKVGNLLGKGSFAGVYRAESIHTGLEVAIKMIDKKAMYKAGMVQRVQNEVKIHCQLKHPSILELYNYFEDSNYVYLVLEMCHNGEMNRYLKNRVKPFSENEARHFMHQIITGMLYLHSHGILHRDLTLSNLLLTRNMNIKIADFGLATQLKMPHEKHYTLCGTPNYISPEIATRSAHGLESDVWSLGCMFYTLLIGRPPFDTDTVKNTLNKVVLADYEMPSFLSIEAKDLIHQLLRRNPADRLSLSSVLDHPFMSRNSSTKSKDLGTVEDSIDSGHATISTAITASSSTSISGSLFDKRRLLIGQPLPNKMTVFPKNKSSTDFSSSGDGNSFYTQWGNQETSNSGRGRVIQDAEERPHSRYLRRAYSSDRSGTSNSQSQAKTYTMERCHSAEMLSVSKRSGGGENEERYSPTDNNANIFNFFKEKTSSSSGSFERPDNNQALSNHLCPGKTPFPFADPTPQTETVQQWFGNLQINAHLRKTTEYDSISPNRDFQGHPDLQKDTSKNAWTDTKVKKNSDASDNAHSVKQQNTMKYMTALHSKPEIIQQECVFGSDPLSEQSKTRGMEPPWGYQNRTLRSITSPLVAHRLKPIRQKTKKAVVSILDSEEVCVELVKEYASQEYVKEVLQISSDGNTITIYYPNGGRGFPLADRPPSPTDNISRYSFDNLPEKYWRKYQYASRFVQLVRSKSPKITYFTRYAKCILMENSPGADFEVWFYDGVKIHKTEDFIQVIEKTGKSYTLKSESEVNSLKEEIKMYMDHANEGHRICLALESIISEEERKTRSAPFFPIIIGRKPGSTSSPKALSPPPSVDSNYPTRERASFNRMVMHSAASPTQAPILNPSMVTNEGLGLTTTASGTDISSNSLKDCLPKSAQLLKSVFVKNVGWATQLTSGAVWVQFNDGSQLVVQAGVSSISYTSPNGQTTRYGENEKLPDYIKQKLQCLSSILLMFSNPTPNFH

Biological target: PLK4 (Homo sapiens, UniProt O00444)
Assay: PLK4 NanoBRET target engagement assay
Assay type: binding
Details: read-out: PLK4 NanoBRET IC50; HEK293 T cells transfected with PLK4 NanoLuc fusion vector; K-5 tracer; 2 hrs incubation
Procedure: To determine the affinity of Compounds described herein in the PLK4 NanoBRET target engagement assay, HEK293 T cells (ATCC Product Number CRL-3216) are first transfected with the PLK4 NanoLuc fusion vector DNA and Transfection carrier DNA using the Fugene HD Transfection reagent in Opti-MEM No Phenol Red buffer. After an overnight incubation in a 37° C./5% CO2 incubator, the transfected HEK293 T cells are trypsinized, counted, and resuspended in Opti-MEM No Phenol Red buffer at a concentration of 200000 cells/mL. White 96-well plates are then plated with 85 μL of cells (17000 cells/well) to which 5 μL of the 20×K-5 tracer solution diluted in tracer dilution buffer is added. Finally, 10 μL of the 10× compounds are added and the plates and then incubated in a 37° C./5% CO2 incubator for 2 hrs. After the incubation, a 50 uL 3× solution of the substrate/inhibitor mix is added to the cells. The plate is then transferred in the Envision plate reader where the Acceptor emission (610 nm) and the Donor emission (450 nm) are measured.
The IC50 of compounds is determined as follows: • 1. The ratio between the Acceptor emission (610 nm)/Donor emission (450 nm) is calculated. • 2. This ratio is then multiplied by 1000 to obtain the mBRET units (multiplying by 1000 is an arbitrary step that simply makes the data easier to interpret; it has no impact on the data set itself) • 3. […]

Row | Compound | IC50 [nM]
1 | COc1c(Nc2cc(C)[nH]n2)nc(Oc2ccc(S(C)(=O)=O)cc2)nc1-c1cnn(C)c1 | 1200
2 | COc1c(Nc2cc(C)[nH]n2)nc(N(C)c2ccc(S(C)(=O)=O)cc2)nc1-c1cnn(C)c1 [Compound 83] | 1600
